Experimental data: PubChem BioAssay AID2013 (Sanford-Burnham Center for Chemical Genomics, 2009)
Only a part is listed here, and it is no random draw. Potency and affinity values are given separately. Some tests of the compounds listed are not included; inactive here does not mean inactive elsewhere. Active and inactive are the calls of the source.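 How the source made its calls: active means spots per cell inhibited over 60%, with over 100 cells counted and total cytoplasm intensity under 500,000; inconclusive means wells with under 100 cells, flagged as likely toxic; inactive means the rest.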

Chains of the proteins cited; added tags and fusions are not shown.
UniProt Q9Y2T6, whole entry: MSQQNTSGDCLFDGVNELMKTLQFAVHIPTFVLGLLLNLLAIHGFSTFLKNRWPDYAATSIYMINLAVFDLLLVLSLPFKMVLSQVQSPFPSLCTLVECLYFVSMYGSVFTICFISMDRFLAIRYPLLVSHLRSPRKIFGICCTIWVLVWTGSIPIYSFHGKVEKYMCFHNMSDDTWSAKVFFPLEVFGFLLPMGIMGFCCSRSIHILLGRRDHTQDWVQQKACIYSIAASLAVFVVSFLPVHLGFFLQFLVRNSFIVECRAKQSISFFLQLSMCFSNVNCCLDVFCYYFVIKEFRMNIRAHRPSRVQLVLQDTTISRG

The compounds below were run against G-protein coupled receptor 55 (Homo sapiens) (UniProt Q9Y2T6) (assay: inhibition of LPI-stimulated GPR55 beta-arrestin translocation – imaging, U2OS, beta-arrestin-GFP, LPI agonist, primary screen (AID 2013;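 further: U2OS cells stably carrying GPR55 and arrestin-GFP stimulated by 5 µM LPI near EC80; imaged beta-arrestin-GFP aggregate spots per cell after agonist stimulation; plate controls were LPI-stimulated DMSO wells for no effect and DMSO wells without LPI for full effect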)). Conditions: LPI antagonism, at 10 µM, hits give high values.
With `O=C(NCC1(N2CCCCC2)CCCCC1)c1cc([N+](=O)[O-])ccc1Cl` the inhibition was inactive: 5.3%.
`CN1[C@@H]2CC[C@H]1CC(OC(=O)C(O)(c1ccccc1)c1ccccc1)C2` (some centres undefined) was tested, and the inhibition was inactive: 4.1%.
`COc1cc(SC)ccc1C(=O)NCC1(N(C)C)CCCCC1` was tested, and the inhibition was inactive: 5.1%.
For `CCN(CC)CC(C)C(C)OC(=O)C(O)(c1ccccc1)c1ccccc1` (centres undefined), the inhibition was inactive: -1.5%.
For `CC(C)N1C(=O)CC2(CCN(CCOC(=O)C(O)(c3ccccc3)c3ccccc3)CC2)C1=O`, the inhibition was inactive: 2%.
With `Cc1ccc(C(=O)NCC2(N3CCCCC3)CCCCC2)cc1` the inhibition was inactive: 9.8%.
With `CN(C)C1CCCC1OC(=O)C(O)(c1ccccc1)c1ccccc1` (centres undefined) the inhibition was inactive: 7.3%.
For `CN(C)c1ccc(C(=O)NCC2(N(C)C)CCCCC2)cc1`, the inhibition was inactive: 8.8%.
`Cc1ccccc1C(=O)NCC1(N2CCCCC2)CCCCC1` was tested, and the inhibition was inactive: 12.8%.
`O=C(NCC1(N2CCCCC2)CCCCC1)c1cc(F)c(F)cc1Cl` was tested, and the inhibition was inactive: 13.6%.
In the case of `C=CCN1CCN(CCOC(=O)C(O)(c2ccccc2)c2ccccc2)CC1`, the inhibition is reported as inactive: 5.8%.
For `COc1ccc(C(=O)NCC2(N(C)C)CCCCC2)cc1`, the inhibition was inactive: 1.2%.
With `O=C(NCC1(N2CCCCC2)CCCCC1)c1cccc(Br)c1` the inhibition was inactive: 2.8%.
In the case of `Cc1cc(C(=O)NCC2(N3CCCCC3)CCCCC2)ccc1[N+](=O)[O-]`, the inhibition is reported as inactive: 1.8%.
In the case of `CCN1CCCC(OC(=O)C2(O)c3ccccc3C=Cc3ccccc32)C1` (centres undefined), the inhibition is reported as inactive: -0.1%.
In the case of `CN(C)C1(CNC(=O)c2ccc(Br)cc2)CCCCC1`, the inhibition is reported as inactive: 0.9%.
`COc1cc(C(=O)NCC2(N(C)C)CCCCC2)c([N+](=O)[O-])cc1OC` was tested, and the inhibition was inactive: 3%.
With `COc1ccc(Cl)cc1C(=O)NCC1(N(C)C)CCCCC1` the inhibition was inactive: 2.9%.
For `COc1cccc(C(=O)NCC2(N3CCCCC3)CCCCC2)c1`, the inhibition was inactive: 4.7%.
In the case of `O=C(NCC1(N2CCCCC2)CCCCC1)c1cccc(Cl)c1`, the inhibition is reported as inactive: 11.7%.
For `O=C(OC1CN2CCC1CC2)C(CO)(c1ccccc1)c1ccccc1` (centres undefined), the inhibition was inactive: 3.2%.
For `COc1ccc(Br)c(C(=O)NCC2(N3CCCCC3)CCCCC2)c1`, the inhibition was inactive: 0.4%.
With `CC(C)Oc1ccc(C(=O)NCC2(N(C)C)CCCCC2)cc1` the inhibition was inactive: 4.4%.
With `CN(C)c1cccc(C(=O)NCC2(N(C)C)CCCCC2)c1` the inhibition was inactive: 8.5%.
